Patent US9034886B2, “4-aminoquinazoline derivatives and uses thereof” (Shanghai Institute of Pharmaceutical Industry, priority 2011, dated 2015)

Chains of the proteins cited; added tags and fusions are not shown.
UniProt Q13547, whole entry: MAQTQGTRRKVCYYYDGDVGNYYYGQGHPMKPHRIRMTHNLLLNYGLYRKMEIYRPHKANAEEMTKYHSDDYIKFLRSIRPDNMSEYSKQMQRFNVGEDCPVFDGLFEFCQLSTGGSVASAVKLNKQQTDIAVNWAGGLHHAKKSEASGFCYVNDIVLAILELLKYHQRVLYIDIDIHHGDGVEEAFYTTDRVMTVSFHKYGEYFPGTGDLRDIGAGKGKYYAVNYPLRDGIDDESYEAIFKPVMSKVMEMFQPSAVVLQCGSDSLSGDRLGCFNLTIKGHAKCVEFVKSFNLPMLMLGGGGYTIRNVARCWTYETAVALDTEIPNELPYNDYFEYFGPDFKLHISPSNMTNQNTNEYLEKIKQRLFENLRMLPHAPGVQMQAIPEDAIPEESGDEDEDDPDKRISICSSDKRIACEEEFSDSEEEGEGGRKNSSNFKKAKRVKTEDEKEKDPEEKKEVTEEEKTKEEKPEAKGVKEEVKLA

Assays:
[1] = test system: K562 human chronic myelogenous leukemia cells; experiment: In vitro anti-proliferative effect, CCK-8 method, K562; type: cell-based
Description: The inhibitory activities of the compounds towards Hut78 T lymphocytic leukemia cells, Jurkat E6-1 human T-cell lymphoma, PANC-1 human pancreatic cancer cells, A549 human lung cancer cells, K562 human chronic myelogenous leukemia cells, Hep3B2.1-7 human liver cancer cells, MDA-MB-435s human breast cancer cells. Colo320 human colorectal cancer cell lines, and PC-3 human prostate cancer at two concentrations of 100 μM and 10 μM were determined. The inhibition percentages were obtained through CCK-8 method.

HDAC1 = HDAC1 (Homo sapiens (Human), UniProt Q13547); experiment: In vitro inhibition of subtype HDAC1 (HDAC1 Inhibitor Drug Screening Kit, Biovision); type: biochemical
Description: The in vitro inhibitory activities of the compounds towards the subtype HDAC1 were tested according to the instructions in the HDAC1 Inhibitor Drug Screening Kit (Biovision).
(1) The compounds to be tested were each individually prepared as 10 μM and 1 μM solutions and their inhibitory activities at these concentrations were tested.
Each dilution sample was placed in two wells and the enzyme inhibition IC50 of the compound was tested.

## Nc1ccccc1NC(=O)c1ccc(CNC(=O)OCc2cccnc2)cc1 [MS-275, reference compound]
[1]
  IC50: 4.66 µM
HDAC1; 1 μM
  % Inhibition towards HDAC1: 46.58%
HDAC1; 10 μM
  % Inhibition towards HDAC1: 76.20%
